Reference: US9718803B2 (AMGEN INC., priority 2010, dated 2017)

Target: PDE10 enzyme
Experiment: MPDE10A7 enzyme activity and inhibition (IMAP TR-FRET assay)
Assay type: biochemical
[1] = PDE10 IC50, Table 14A, fluorescein labeled cAMP or cGMP substrate
[2] = PDE10 IC50, Table 15A, fluorescein labeled cAMP or cGMP substrate
[3] = Table 16A, Examples 4.1 to 4.45, PDE10 inhibition
[4] = Table 17A, Examples 5.1 to 5.43, PDE10 inhibition
[5] = Table 18A, Examples 6.1 to 6.60, PDE10 inhibition

For Cc1ccc(C(=O)N2CC(c3nccnc3-c3ccccc3)C2)nc1 [Example 1.14, (5-methylpyridin-2-yl)(3-(3-phenylpyrazin-2-yl)azetidin-1-yl)methanone], the IC50 (PDE10 IC50, Table 13A, fluorescein labeled cAMP or cGMP substrate) was 2030 nM.

Compound Cn1c(C(=O)N2CC(c3nccnc3-c3ccccc3)C2)nc2ccccc21 [Example 2.1, (1-Methyl-1H-benzoimidazol-2-yl)-[3-(3-phenyl-pyrazin-2-yl)-azetidin-1-yl]-methanone] has an IC50 [1] of 181 nM.

Compound COc1cncc(-c2nccnc2C2CN(C(=O)c3nc4ccccc4[nH]3)C2)c1 [Example 2.12, (1H-Benzoimidazol-2-yl)-{3-[3-(5-methoxy-pyridin-3-yl)-pyrazin-2-yl]-azetidin-1-yl}-methanone] has an IC50 [1] of 640 nM.

O=C(c1nc2ccccc2[nH]1)N1CC(c2nccnc2-c2ccc(CO)cc2)C1 [Example 2.20, (1H-Benzoimidazol-2-yl)-{3-[3-(4-hydroxymethyl-phenyl)-pyrazin-2-yl]-azetidin-1-yl}-methanone] gave an IC50 [1] of 39.8 nM.

Work on N#Cc1cccc(-c2nccnc2C2CN(C(=O)c3nc4ccccc4[nH]3)C2)c1 [Example 2.30, 3-(3-(1-(1H-benzo[d]imidazole-2-carbonyl)azetidin-3-yl)pyrazin-2-yl)benzonitrile] yielded an IC50 [1] of 226 nM.

With O=C(c1nc2ccccc2[nH]1)N1CC(c2nccnc2NC2CCCC2)C1 [Example 3.22, (1H-Benzoimidazol-2-yl)-[3-(3-cyclopentylamino-pyrazin-2-yl)-azetidin-1-yl]-methanone] the IC50 [2] was 36.3 nM.

COCCNc1nccnc1C1CN(C(=O)c2nc3ccccc3[nH]2)C1 [Example 3.26, (1H-benzo[d]imidazol-2-yl)(3-(3-((2-methoxyethyl)amino)pyrazin-2-yl)azetidin-1-yl)methanone] gave an IC50 [2] of 58.6 nM.

O=C(c1nc2ccccc2[nH]1)N1CC(c2nccnc2N2CCCC(CO)C2)C1 (stereo not shown) [Example 3.28, (R & S)-(1H-Benzoimidazol-2-yl)-{3-[3-(3-hydroxymethyl-piperidin-1-yl)-pyrazin-2-yl]-azetidin-1-yl}-methanone] was tested, and the IC50 [2] was 20.6 nM.

O=C(c1nc2ccccc2[nH]1)N1CC(c2nccnc2N2CCCOCC2)C1 [Example 3.36, (1H-Benzoimidazol-2-yl)-[3-(3-[1,4]oxazepan-4-yl-pyrazin-2-yl)-azetidin-1-yl]-methanone] gave an IC50 [2] of 62.7 nM.

In the case of O=C(c1nc2ccccc2[nH]1)N1CC(c2nccnc2N2CCC(CO)C2)C1 (stereo not shown) [Example 3.40, (R & S)-(1H-Benzoimidazol-2-yl)-{3-[3-(3-hydroxymethyl-pyrrolidin-1-yl)-pyrazin-2-yl]-azetidin-1-yl}-methanone], the IC50 [2] is reported as 66.5 nM.

For CC(=O)N1CCN(c2nccnc2C2CN(C(=O)c3nc4ccccc4[nH]3)C2)CC1 [Example 3.47, 1-(4-(3-(1-(1H-benzo[d]imidazole-2-carbonyl)azetidin-3-yl)pyrazin-2-yl)piperazin-1-yl)ethanone], the IC50 [2] was 192 nM.

O=C(c1nc2ccccc2[nH]1)N1CC(c2nccnc2N2CCC(O)CC2)C1 [Example 3.51, (1H-benzo[d]imidazol-2-yl)(3-(3-(4-hydroxypiperidin-1-yl)pyrazin-2-yl)azetidin-1-yl)methanone] gave an IC50 [2] of 23.3 nM.

COc1ncccc1-c1nccnc1C1CN(c2ccc3ccccc3n2)C1 [Example 4.1, 2-(3-(3-(2-methoxypyridin-3-yl)pyrazin-2-yl)azetidin-1-yl)quinoline] was tested, and the IC50 [3] was 0.00234 nM.

For Fc1cncc(-c2nccnc2C2CN(c3ccc4ccccc4n3)C2)c1 [Example 4.7, 2-(3-(3-(5-fluoropyridin-3-yl)pyrazin-2-yl)azetidin-1-yl)quinoline], the IC50 [3] was 0.0123 nM.

With COc1cccc(-c2nccnc2C2CN(c3ccc4ccccc4n3)C2)n1 [Example 4.14, 2-(3-(3-(6-methoxypyridin-2-yl)pyrazin-2-yl)azetidin-1-yl)quinoline] the IC50 [3] was 0.0012 nM.

Cc1ccc(-c2nccnc2C2CN(c3ccc4ccccc4n3)C2)cc1F [Example 4.22, 2-(3-(3-(3-fluoro-4-methylphenyl)pyrazin-2-yl)azetidin-1-yl)quinoline] showed an IC50 [3] of 0.0042 nM.

In the case of Oc1ccc(-c2nccnc2C2CN(c3ccc4ccccc4n3)C2)cc1Cl [Example 4.23, 2-chloro-4-(3-(1-(quinolin-2-yl)azetidin-3-yl)pyrazin-2-yl)phenol], the IC50 [3] is reported as 0.0023 nM.

CCOc1ccc(-c2nccnc2C2CN(c3ccc4ccccc4n3)C2)cc1Cl [Example 4.26, 2-(3-(3-(3-chloro-4-ethoxyphenyl)pyrazin-2-yl)azetidin-1-yl)quinoline] was tested, and the IC50 [3] was 0.0106 nM.

With Fc1ccc(-c2nccnc2C2CN(c3ccc4ccccc4n3)C2)cc1F [Example 4.33, 2-(3-(3-(3,4-difluorophenyl)pyrazin-2-yl)azetidin-1-yl)quinoline] the IC50 [3] was 0.0099 nM.

Work on Cc1cc(Cl)cc(-c2nccnc2C2CN(c3ccc4ccccc4n3)C2)c1 [Example 4.37, 2-(3-(3-(3-chloro-5-methylphenyl)pyrazin-2-yl)azetidin-1-yl)quinoline] yielded an IC50 [3] of 0.0072 nM.

Work on COC(=O)c1cccc(-c2nccnc2C2CN(c3ccc4ccccc4n3)C2)c1 [Example 5.9, methyl 3-(3-(1-(quinolin-2-yl)azetidin-3-yl)pyrazin-2-yl)benzoate] yielded an IC50 [4] of 0.2 nM.

Work on CN(C)C(=O)c1cccc(-c2nccnc2C2CN(c3ccc4ccccc4n3)C2)c1 [Example 5.24, N,N-dimethyl-3-(3-(1-(quinolin-2-yl)azetidin-3-yl)pyrazin-2-yl)benzamide] yielded an IC50 [4] of 18 nM.

In the case of FC(F)(F)c1cccc(-c2nccnc2C2CN(c3ccc4ccccc4n3)C2)c1 [Example 5.26, 2-(3-(3-(3-(trifluoromethyl)phenyl)pyrazin-2-yl)azetidin-1-yl)quinoline], the IC50 [4] is reported as 13.4 nM.

For CN(C)S(=O)(=O)c1cccc(-c2nccnc2C2CN(c3ccc4ccccc4n3)C2)c1 [Example 5.33, N,N-dimethyl-3-(3-(1-(quinolin-2-yl)azetidin-3-yl)pyrazin-2-yl)benzenesulfonamide], the IC50 [4] was 17 nM.

In the case of CCCc1ccc(-c2nccnc2C2CN(c3ccc4ccccc4n3)C2)cc1 [Example 5.36, 2-(3-(3-(4-propylphenyl)pyrazin-2-yl)azetidin-1-yl)quinoline], the IC50 [4] is reported as 9.95 nM.

c1ccc(CC2CCN(c3nccnc3C3CN(c4ccc5ccccc5n4)C3)C2)cc1 (stereo not shown) [Example 6.3, (R- & S-)-2-(3-(3-(3-benzylpyrrolidin-1-yl)pyrazin-2-yl)azetidin-1-yl)quinoline] was tested, and the IC50 [5] was 5 nM.

Work on F[C@H]1CCN(c2nccnc2C2CN(c3ccc4ccccc4n3)C2)C1 [Example 6.20, (S)-2-(3-(3-(3-fluoropyrrolidin-1-yl)pyrazin-2-yl)azetidin-1-yl)quinoline] yielded an IC50 [5] of 23 nM.

With COCC1CCN(c2nccnc2C2CN(c3ccc4ccccc4n3)C2)C1 (stereo not shown) [Example 6.39, (R- & S-)-2-(3-(3-(3-(methoxymethyl)pyrrolidin-1-yl)pyrazin-2-yl)azetidin-1-yl)quinoline] the IC50 [5] was 6.66 nM.

For c1ccc2nc(N3CC(c4nccnc4N4CCOCC4)C3)ccc2c1 [Example 6.43, 4-(3-(1-(quinolin-2-yl)azetidin-3-yl)pyrazin-2-yl)morpholine], the IC50 [5] was 14.7 nM.

FC1(F)CN(c2nccnc2C2CN(c3ccc4ccccc4n3)C2)C1 [Example 6.46, 2-(3-(3-(3,3-difluoroazetidin-1-yl)pyrazin-2-yl)azetidin-1-yl)quinoline] showed an IC50 [5] of 27 nM.

With Cc1cnn(-c2nccnc2C2CN(c3ccc4ccccc4n3)C2)c1 [Example 6.49, 2-(3-(3-(4-methyl-1H-pyrazol-1-yl)pyrazin-2-yl)azetidin-1-yl)quinoline] the IC50 [5] was 20 nM.

CC(C)(C)OC(=O)NC1CN(c2nccnc2C2CN(c3ccc4ccccc4n3)C2)C1 [Example 6.50, tert-butyl (1-(3-(1-(quinolin-2-yl)azetidin-3-yl)pyrazin-2-yl)azetidin-3-yl)carbamate] was tested, and the IC50 [5] was 5.6 nM.

With Cc1cn(-c2nccnc2C2CN(c3ccc4ccccc4n3)C2)cn1 [Example 6.52, 2-(3-(3-(4-methyl-1H-imidazol-1-yl)pyrazin-2-yl)azetidin-1-yl)quinoline] the IC50 [5] was 5 nM.

With Clc1ccccc1-c1nccnc1C1CN(c2ncc3ccccc3n2)C1 [Example 10.3, 2-(3-(3-(2-chlorophenyl)pyrazin-2-yl)azetidin-1-yl)quinazoline] the IC50 (PDE10, Table 22A) was 30.9 nM.

In the case of Cc1ccccc1-c1nccnc1C1CN(c2ncc3ccccc3n2)C1 [Example 10.4, 2-(3-(3-(o-tolyl)pyrazin-2-yl)azetidin-1-yl)quinazoline], the IC50 (PDE10, Table 22A) is reported as 17.8 nM.

Work on Cc1cccc(-c2nccnc2C2CN(c3ncc4ccccc4n3)C2)c1 [Example 17.2, 2-[3-(3-m-Tolyl-pyrazin-2-yl)-azetidin-1-yl]-quinazoline] yielded an IC50 (PDE10, Table 24A) of 12 nM.

Compound Cc1cccc(-c2nccnc2C2CN(c3nc4ccccc4s3)C2)c1 [Example 17.4, 2-[3-(3-m-Tolyl-pyrazin-2-yl)-azetidin-1-yl]-benzothiazole] has an IC50 (PDE10, Table 24A) of 31.9 nM.

Cc1cccc(-c2cccnc2C2CN(c3ccc4ccccc4n3)C2)c1 [Example 18.2, 2-[3-(3-m-Tolyl-pyridin-2-yl)-azetidin-1-yl]-quinoline] showed an IC50 (PDE10, Table 25A) of 6.09 nM.

In the case of Cc1cccc(N2CC(c3nccnc3N3CCC(CO)CC3)C2)n1 [Example 28.7, (1-{3-[1-(6-Methyl-pyridin-2-yl)-azetidin-3-yl]-pyrazin-2-yl}-piperidin-4-yl)-methanol], the IC50 (PDE10, Table 32A) is reported as 217 nM.

Work on COc1cccc(-c2nccnc2C2CN(c3nccc(-c4ccccc4)n3)C2)c1 [Example 29.9, 2-(3-(3-(3-methoxyphenyl)pyrazin-2-yl)azetidin-1-yl)-4-phenylpyrimidine] yielded an IC50 (PDE10, Table 33A) of 4300 nM.
